Test results reported in patent US20100184672A1.

Target: GPIb on human platelets (human) (UniProt P07359)
Assay: cell-based or functional assay

- Platelet interaction (cells/mm^2/sec), no suspension treatment (cells/mm^2/sec): 226
- Platelet interaction (cells/mm^2/sec), with 6D1 in suspension (cells/mm^2/sec): 58.5
Substance: thrombin (from UniProt P00734 328-622) (enzyme)
